Yeast mating assay 1: variants of the scFv Ab-14

Target: peptide PDVDLGDISGINAS, taken from heptad repeat 2 (HR2) of SARS-CoV-2 spike.

Ab-14 is the parent antibody, in scFv form: VH, then a (GGGGS)3 linker, then VL. The light chain is unchanged in all variants.
VH: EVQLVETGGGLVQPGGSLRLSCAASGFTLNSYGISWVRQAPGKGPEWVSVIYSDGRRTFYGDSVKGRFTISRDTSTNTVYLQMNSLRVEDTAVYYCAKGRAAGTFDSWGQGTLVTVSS
VL: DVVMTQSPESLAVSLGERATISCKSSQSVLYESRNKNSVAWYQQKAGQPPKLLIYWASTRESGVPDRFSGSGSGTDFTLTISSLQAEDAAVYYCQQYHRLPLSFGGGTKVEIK

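The parent was found by panning a naive human phage display library on the peptide. Variants in AAYL49 differ from the parent at up to three CDR positions; double and triple changes were sampled at random. In AlphaSeq, yeast of one mating type display the scFv and yeast of the other type display the target. Mating (16 h, 30 °C) was followed by selection of diploids and sequencing of their barcodes. Scores were corrected for input abundance and mapped to Kd with protein pairs of known affinity run in the same pool. Mating was done three times.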

Positions count from residue 1 of the parent VH; L29A puts A in place of L. The read-out is the apparent dissociation constant on a log10 scale (nM): the lower, the stronger. The mean shown is taken over the replicates in which the pair was detected. "nd" marks a missing value. The strain was present, yet no cells mated with the target were sequenced in that replicate, which points to weak or no binding. As a blank, each scFv also met three strains without target: over library AAYL49, 15% of these pairings were detected, typically at 4.06 and seldom below 2.83. Parent in this assay: reference entry 0.65, copy in this library 4.11 (one replicate of three).

{"changes": "L29A S53H S107W", "replicates, log10 nM": "3.88 3.59 nd", "log10 Kd (nM), mean": "3.74"}
{"changes": "N30M D54G F59M", "replicates, log10 nM": "nd nd nd", "log10 Kd (nM), mean": "nd"}
{"changes": "D54A R57V G99Q", "replicates, log10 nM": "nd nd nd", "log10 Kd (nM), mean": "nd"}
{"changes": "Y52N G61K K65S", "replicates, log10 nM": "5.22 nd nd", "log10 Kd (nM), mean": "5.22"}
{"changes": "S31H D54E R100Y", "replicates, log10 nM": "nd nd 4.09", "log10 Kd (nM), mean": "4.09"}
{"changes": "S53Y G61L S63P", "replicates, log10 nM": "nd nd 2.87", "log10 Kd (nM), mean": "2.87"}
{"changes": "F27N I34Q V64L", "replicates, log10 nM": "nd nd nd", "log10 Kd (nM), mean": "nd"}
{"changes": "R56G G99F G103K", "replicates, log10 nM": "nd nd nd", "log10 Kd (nM), mean": "nd"}
{"changes": "S53N Y60K K65R", "replicates, log10 nM": "nd nd nd", "log10 Kd (nM), mean": "nd"}
{"changes": "Y60I V64W S107I", "replicates, log10 nM": "nd 4.93 3.66", "log10 Kd (nM), mean": "4.29"}
{"changes": "G26D F27Y K65G", "replicates, log10 nM": "nd nd nd", "log10 Kd (nM), mean": "nd"}
{"changes": "N30H I51P A102C", "replicates, log10 nM": "nd nd nd", "log10 Kd (nM), mean": "nd"}
{"changes": "Y60M D62W S63V", "replicates, log10 nM": "6.22 3.65 nd", "log10 Kd (nM), mean": "4.93"}
{"changes": "S63D G103N D106K", "replicates, log10 nM": "1.95 2.47 3.93", "log10 Kd (nM), mean": "2.78"}
{"changes": "L29H G55V T58N", "replicates, log10 nM": "nd nd nd", "log10 Kd (nM), mean": "nd"}
{"changes": "N30V S35T Y60M", "replicates, log10 nM": "nd nd nd", "log10 Kd (nM), mean": "nd"}
{"changes": "F27I S31Q Y52H", "replicates, log10 nM": "nd 3.92 nd", "log10 Kd (nM), mean": "3.92"}
{"changes": "I34E I51K F59S", "replicates, log10 nM": "nd nd nd", "log10 Kd (nM), mean": "nd"}
{"changes": "Y60T R100T", "replicates, log10 nM": "1.79 1.90 2.35", "log10 Kd (nM), mean": "2.01"}
{"changes": "G26V L29V I34Q", "replicates, log10 nM": "nd nd nd", "log10 Kd (nM), mean": "nd"}
{"changes": "F27Y A101T F105Y", "replicates, log10 nM": "2.11 2.48 2.42", "log10 Kd (nM), mean": "2.33"}
{"changes": "L29P D62K S63D", "replicates, log10 nM": "nd nd nd", "log10 Kd (nM), mean": "nd"}
{"changes": "R100L T104M S107M", "replicates, log10 nM": "1.09 1.38 1.29", "log10 Kd (nM), mean": "1.25"}

The 3 strongest on average among those seen in every replicate, once more:

| changes | replicates, log10 nM | log10 Kd (nM), mean |
|---|---|---|
| R100L T104M S107M | 1.09 1.38 1.29 | 1.25 |
| Y60T R100T | 1.79 1.90 2.35 | 2.01 |
| F27Y A101T F105Y | 2.11 2.48 2.42 | 2.33 |

Source: Engelhart et al. 2022 (doi:10.1038/s41597-022-01779-4), MIT Lincoln Laboratory and A-Alpha Bio; data file from the FLAb repository.